By UniProt entry, the sequences of proteins in these tests, tags left out.
UniProt P32245, whole entry: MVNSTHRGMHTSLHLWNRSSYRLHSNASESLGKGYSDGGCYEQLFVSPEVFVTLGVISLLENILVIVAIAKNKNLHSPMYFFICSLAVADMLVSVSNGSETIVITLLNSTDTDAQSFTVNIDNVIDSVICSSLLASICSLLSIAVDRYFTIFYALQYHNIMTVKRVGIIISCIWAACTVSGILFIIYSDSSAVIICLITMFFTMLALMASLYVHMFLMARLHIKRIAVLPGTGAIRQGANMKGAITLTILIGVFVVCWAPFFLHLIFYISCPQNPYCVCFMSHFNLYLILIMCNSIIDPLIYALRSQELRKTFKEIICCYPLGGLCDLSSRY

According to US20070105759A1 (priority 2003, published 2007):

What follows are compounds tested against MC4 (Homo sapiens, UniProt P32245). Details: read-out: MC4 Ki.

Structure (SMILES) | Ki
CC(=O)N[C@H](CCCNC(=N)N)C(=O)N[C@H]1CSSC[C@@H](C(N)=O)NC(=O)[C@H](Cc2c[nH]c3ccccc23)NC(=O)[C@H](CCCNC(=N)N)NC(=O)[C@H](Cc2ccccc2)NC(=O)[C@H](Cc2c[nH]cn2)NC(=O)[C@H](CCC(=O)O)NC1=O [Compound No. 47, Ac-D-Arg-cyclo[Cys-Glu-His-Phe-Arg-Trp-Cys]-NH2] | 53.3 nM
CC(=O)N[C@@H](CCCNC(=N)N)C(=O)N[C@H]1CSSC[C@@H](C(N)=O)NC(=O)[C@H](Cc2c[nH]c3ccccc23)NC(=O)[C@H](CCCNC(=N)N)NC(=O)[C@@H](Cc2ccccc2)NC(=O)[C@H](Cc2c[nH]cn2)NC(=O)[C@H](CCC(=O)O)NC1=O [Compound No. 48, Ac-Arg-cyclo[Cys-Glu-His-D-Phe-Arg-Trp-Cys]-NH2] | 0.43 nM
CC(=O)N[C@@H](CCCNC(=N)N)C(=O)N[C@H]1CSSC[C@@H](C(=O)O)NC(=O)[C@H](Cc2c[nH]c3ccccc23)NC(=O)[C@H](CCCNC(=N)N)NC(=O)[C@@H](Cc2ccccc2)NC(=O)[C@H](Cc2c[nH]cn2)NC(=O)[C@H](CCC(=O)O)NC1=O [Compound No. 49, Ac-Arg-cyclo[Cys-Glu-His-D-Phe-Arg-Trp-Cys]-OH] | 3.14 nM
CC(=O)N[C@@H](CCCNC(=N)N)C(=O)N[C@H]1CSSC[C@@H](C(N)=O)NC(=O)[C@H](Cc2c[nH]c3ccccc23)NC(=O)[C@H](CCCNC(=N)N)NC(=O)[C@@H](Cc2ccc(Cl)cc2)NC(=O)[C@H](Cc2c[nH]cn2)NC(=O)[C@H](CCC(=O)O)NC1=O [Compound No. 50, Ac-Arg-cyclo[Cys-Glu-His-(4-Cl-D-Phe)-Arg-Trp-Cys]-NH2] | 0.21 nM
CC(=O)N[C@@H](CCCNC(=N)N)C(=O)N[C@H]1CSSC[C@@H](C(N)=O)NC(=O)[C@H](Cc2c[nH]c3ccccc23)NC(=O)[C@H](CCCNC(=N)N)NC(=O)[C@@H](Cc2ccccc2)NC(=O)[C@H](Cc2cn(C)cn2)NC(=O)[C@H](CCC(=O)O)NC1=O [Compound No. 51, Ac-Arg-cyclo[Cys-Glu-(1-Me-His)-D-Phe-Arg-Trp-Cys]-NH2] | 6.52 nM
CC(=O)N[C@H](CCCNC(=N)N)C(=O)N[C@H]1CSSC[C@@H](C(N)=O)NC(=O)[C@H](Cc2c[nH]c3ccccc23)NC(=O)[C@H](CCCNC(=N)N)NC(=O)[C@@H](Cc2ccccc2)NC(=O)[C@H](Cc2c[nH]cn2)NC(=O)[C@H](CCC(=O)O)NC1=O [Compound No. 52, Ac-D-Arg-cyclo[Cys-Glu-His-D-Phe-Arg-Trp-Cys]-NH2] | 0.55 nM
CC(=O)N[C@H](CCCNC(=N)N)C(=O)N[C@H]1CSSC[C@@H](C(=O)O)NC(=O)[C@H](Cc2c[nH]c3ccccc23)NC(=O)[C@H](CCCNC(=N)N)NC(=O)[C@@H](Cc2ccccc2)NC(=O)[C@H](Cc2c[nH]cn2)NC(=O)[C@H](CCC(=O)O)NC1=O [Compound No. 53, Ac-D-Arg-cyclo[Cys-Glu-His-D-Phe-Arg-Trp-Cys]-OH] | 8.68 nM
CC(=O)N[C@@H](CCCCNC(=N)N)C(=O)N[C@H]1CSSC[C@@H](C(N)=O)NC(=O)[C@H](Cc2c[nH]c3ccccc23)NC(=O)[C@H](CCCNC(=N)N)NC(=O)[C@@H](Cc2ccccc2)NC(=O)[C@H](Cc2c[nH]cn2)NC(=O)[C@H](CCC(=O)O)NC1=O [Compound No. 54, Ac-hArg-cyclo[Cys-Glu-His-D-Phe-Arg-Trp-Cys]-NH2] | 0.48 nM
CC(=O)N[C@@H](CCCNC(N)=O)C(=O)N[C@H]1CSSC[C@@H](C(N)=O)NC(=O)[C@H](Cc2c[nH]c3ccccc23)NC(=O)[C@H](CCCNC(=N)N)NC(=O)[C@@H](Cc2ccccc2)NC(=O)[C@H](Cc2c[nH]cn2)NC(=O)[C@H](CCC(=O)O)NC1=O [Compound No. 55, Ac-Cit-cyclo[Cys-Glu-His-D-Phe-Arg-Trp-Cys]-NH2] | 1.67 nM
CC(=O)N[C@@H](CCCNC(N)=O)C(=O)N[C@H]1CSSC[C@@H](C(N)=O)NC(=O)[C@H](Cc2c[nH]c3ccccc23)NC(=O)[C@H](CCCNC(=N)N)NC(=O)[C@@H](Cc2ccccc2)NC(=O)[C@H](Cc2cn(C)cn2)NC(=O)[C@H](CCC(=O)O)NC1=O [Compound No. 56, Ac-Cit-cyclo[Cys-Glu-(1-Me-His)-D-Phe-Arg-Trp-Cys]-NH2] | 23.4 nM
CC(=O)N[C@@H](CC(C)C)C(=O)N[C@H]1CSSC[C@@H](C(N)=O)NC(=O)[C@H](Cc2c[nH]c3ccccc23)NC(=O)[C@H](CCCNC(=N)N)NC(=O)[C@@H](Cc2ccccc2)NC(=O)[C@H](Cc2c[nH]cn2)NC(=O)[C@H](CCC(=O)O)NC1=O [Compound No. 57, Ac-Leu-cyclo[Cys-Glu-His-D-Phe-Arg-Trp-Cys]-NH2] | 2.26 nM
CC(=O)N[C@@H](CCCCN)C(=O)N[C@H]1CSSC[C@@H](C(N)=O)NC(=O)[C@H](Cc2c[nH]c3ccccc23)NC(=O)[C@H](CCCNC(=N)N)NC(=O)[C@@H](Cc2ccccc2)NC(=O)[C@H](Cc2c[nH]cn2)NC(=O)[C@H](CCC(=O)O)NC1=O [Compound No. 58, Ac-Lys-cyclo[Cys-Glu-His-D-Phe-Arg-Trp-Cys]-NH2] | 0.81 nM
CCCC[C@H](NC(C)=O)C(=O)N[C@H]1CSSC[C@@H](C(N)=O)NC(=O)[C@H](Cc2c[nH]c3ccccc23)NC(=O)[C@H](CCCNC(=N)N)NC(=O)[C@@H](Cc2ccccc2)NC(=O)[C@H](Cc2c[nH]cn2)NC(=O)[C@H](CCC(=O)O)NC1=O [Compound No. 60, Ac-nLeu-cyclo[Cys-Glu-His-D-Phe-Arg-Trp-Cys]-NH2] | 1.51 nM
CCCC[C@H](NC(C)=O)C(=O)N[C@H]1CSSC[C@@H](C(=O)N[C@@H](CO)C(=O)N2CCC[C@H]2C(N)=O)NC(=O)[C@H](Cc2c[nH]c3ccccc23)NC(=O)[C@H](CCCNC(=N)N)NC(=O)[C@@H](Cc2ccccc2)NC(=O)[C@H](Cc2c[nH]cn2)NC(=O)[C@H](CCC(=O)O)NC1=O [Compound No. 61, Ac-nLeu-cyclo[Cys-Glu-His-D-Phe-Arg-Trp-Cys]-Ser-Pro-NH2] | 0.87 nM
CC(=O)N[C@H](C(=O)N[C@H]1CSSC[C@@H](C(N)=O)NC(=O)[C@H](Cc2c[nH]c3ccccc23)NC(=O)[C@H](CCCNC(=N)N)NC(=O)[C@@H](Cc2ccccc2)NC(=O)[C@H](Cc2c[nH]cn2)NC(=O)[C@H](CCC(=O)O)NC1=O)C(C)C [Compound No. 63, Ac-Val-cyclo[Cys-Glu-His-D-Phe-Arg-Trp-Cys]-NH2] | 2.28 nM
N=C(N)NCCC[C@@H]1NC(=O)[C@@H](Cc2ccccc2)NC(=O)[C@H](Cc2c[nH]cn2)NC(=O)[C@H](CCC(=O)O)NC(=O)[C@@H](NC(=O)[C@@H](CCCNC(=N)N)NS(=O)(=O)c2ccc3ccccc3c2)CSSC[C@@H](C(N)=O)NC(=O)[C@H](Cc2c[nH]c3ccccc23)NC1=O [Compound No. 64, N-(2-naphthalenesulfonyl)-D-Arg-cyclo[Cys-Glu-His-D-Phe-Arg-Trp-Cys]-NH2] | 0.62 nM
N=C(N)NCCC[C@H](NC(=O)CCc1ccc(O)cc1)C(=O)N[C@H]1CSSC[C@@H](C(N)=O)NC(=O)[C@H](Cc2c[nH]c3ccccc23)NC(=O)[C@H](CCCNC(=N)N)NC(=O)[C@@H](Cc2ccccc2)NC(=O)[C@H](Cc2c[nH]cn2)NC(=O)[C@H](CCC(=O)O)NC1=O [Compound No. 66, 3-(4-hydroxyphenyl)propionyl-Arg-cyclo[Cys-Glu-His-D-Phe-Arg-Trp-Cys]-NH2] | 0.83 nM
N=C(N)NCCC[C@H](NC(=O)[C@@H](N)Cc1ccc(O)cc1)C(=O)N[C@H]1CSSC[C@@H](C(N)=O)NC(=O)[C@H](Cc2c[nH]c3ccccc23)NC(=O)[C@H](CCCNC(=N)N)NC(=O)[C@@H](Cc2ccccc2)NC(=O)[C@H](Cc2c[nH]cn2)NC(=O)[C@H](CCC(=O)O)NC1=O [Compound No. 68, Tyr-Arg-cyclo[Cys-Glu-His-D-Phe-Arg-Trp-Cys]-NH2] | 0.63 nM
N=C(N)NCCC[C@H](NC(=O)[C@@H](N)Cc1ccc(O)cc1)C(=O)N[C@H]1CSSC[C@@H](C(=O)N[C@@H](CCC(=O)O)C(N)=O)NC(=O)[C@H](Cc2c[nH]c3ccccc23)NC(=O)[C@H](CCCNC(=N)N)NC(=O)[C@@H](Cc2ccccc2)NC(=O)[C@H](Cc2c[nH]cn2)NC(=O)[C@H](CCC(=O)O)NC1=O [Compound No. 71, Tyr-Arg-cyclo[Cys-Glu-His-D-Phe-Arg-Trp-Cys]-Glu-NH2] | 2.11 nM
CC(=O)N[C@@H](Cc1ccc(O)cc1)C(=O)N[C@@H](CCCNC(=N)N)C(=O)N[C@H]1CSSC[C@@H](CO)NC(=O)[C@H](Cc2c[nH]c3ccccc23)NC(=O)[C@H](CCCNC(=N)N)NC(=O)[C@@H](Cc2ccccc2)NC(=O)[C@H](Cc2c[nH]cn2)NC(=O)[C@H](CCC(=O)O)NC1=O [Compound No. 78, Ac-Tyr-Arg-cyclo[Cys-Glu-His-D-Phe-Arg-Trp-Cys] alcohol] | 7.28 nM
CC(=O)N[C@@H](Cc1ccc(O)cc1)C(=O)N[C@@H](CCCNC(=N)N)C(=O)N[C@H]1CSSC[C@@H](C(N)=O)NC(=O)[C@H](Cc2c[nH]c3ccccc23)NC(=O)[C@H](CCCNC(=N)N)NC(=O)[C@@H](Cc2ccccc2)NC(=O)[C@H](Cn2cccn2)NC(=O)[C@H](CCC(=O)O)NC1=O [Compound No. 102, Ac-Tyr-Arg-cyclo[Cys-Glu-(1-pyrazolyl-Ala)-D-Phe-Arg-Trp-Cys]-NH2] | 105 nM
CC(=O)N[C@@H](Cc1ccc(O)cc1)C(=O)N[C@@H](CCCNC(=N)N)C(=O)N[C@H]1CSSC[C@@H](C(N)=O)NC(=O)[C@H](Cc2c[nH]c3ccccc23)NC(=O)[C@H](CCCNC(=N)N)NC(=O)[C@@H](Cc2ccccc2)NC(=O)[C@H](Cc2nc(-c3ccccc3)c[nH]2)NC(=O)[C@H](CCC(=O)O)NC1=O [Compound No. 103, Ac-Tyr-Arg-cyclo[Cys-Glu-(4-phenyl-1H-imidazol-2-yl-Ala)-D-Phe-Arg-Trp-Cys]-NH2] | 6.62 nM
CC(=O)N[C@@H](Cc1ccc(O)cc1)C(=O)N[C@@H](CCCNC(=N)N)C(=O)N[C@H]1CSSC[C@@H](C(N)=O)NC(=O)[C@H](Cc2c[nH]c3ccccc23)NC(=O)[C@H](CCCNC(=N)N)NC(=O)[C@@H](Cc2ccccc2)NC(=O)[C@@H](Cc2nc(-c3ccccc3)c[nH]2)NC(=O)[C@H](CCC(=O)O)NC1=O [Compound No. 104, Ac-Tyr-Arg-cyclo[Cys-Glu-(4-phenyl-1H-imidazol-2-yl-D-Ala)-D-Phe-Arg-Trp-Cys]-NH2] | 136 nM
CC(=O)N[C@@H](Cc1ccc(O)cc1)C(=O)N[C@@H](CCCNC(=N)N)C(=O)N[C@H]1CSSC[C@@H](C(N)=O)NC(=O)[C@H](Cc2c[nH]c3ccccc23)NC(=O)[C@H](CCCNC(=N)N)NC(=O)[C@@H](Cc2ccccc2)NC(=O)[C@H](Cc2cnccn2)NC(=O)[C@H](CCC(=O)O)NC1=O [Compound No. 105, Ac-Tyr-Arg-cyclo[Cys-Glu-(2-pyrazine-Ala)-D-Phe-Arg-Trp-Cys]-NH2] | 20.8 nM
